{"sequences": {"note": "Sequences of proteins named here, by UniProt entry; tags and fusion partners are left off.", "UniProt O43614, whole entry": "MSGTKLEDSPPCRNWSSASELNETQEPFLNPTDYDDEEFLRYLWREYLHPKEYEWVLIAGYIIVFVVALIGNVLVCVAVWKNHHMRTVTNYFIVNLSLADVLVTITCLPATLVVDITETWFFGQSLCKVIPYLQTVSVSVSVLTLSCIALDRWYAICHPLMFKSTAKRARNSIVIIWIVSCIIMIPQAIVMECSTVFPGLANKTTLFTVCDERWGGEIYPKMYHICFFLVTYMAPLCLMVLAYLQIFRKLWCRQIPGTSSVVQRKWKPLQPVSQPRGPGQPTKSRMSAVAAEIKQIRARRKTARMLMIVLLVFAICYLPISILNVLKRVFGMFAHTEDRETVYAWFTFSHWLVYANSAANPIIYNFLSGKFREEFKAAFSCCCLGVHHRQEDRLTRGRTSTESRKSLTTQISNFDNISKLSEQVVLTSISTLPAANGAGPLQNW", "UniProt O43613, whole entry": "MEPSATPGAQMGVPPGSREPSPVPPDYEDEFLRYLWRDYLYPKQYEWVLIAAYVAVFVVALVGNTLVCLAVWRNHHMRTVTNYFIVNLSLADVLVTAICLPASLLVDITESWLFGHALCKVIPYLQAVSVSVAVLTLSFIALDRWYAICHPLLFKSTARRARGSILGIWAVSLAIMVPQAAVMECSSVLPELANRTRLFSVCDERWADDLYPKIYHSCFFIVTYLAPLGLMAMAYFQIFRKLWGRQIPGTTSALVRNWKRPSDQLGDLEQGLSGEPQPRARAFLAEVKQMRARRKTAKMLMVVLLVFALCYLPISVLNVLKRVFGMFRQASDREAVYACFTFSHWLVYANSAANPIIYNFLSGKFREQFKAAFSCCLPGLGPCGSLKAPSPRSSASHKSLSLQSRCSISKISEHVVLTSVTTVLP"}, "source": "patent US20150166523A1", "about": "“BRANCHED CHAIN ALKYL HETEROAROMATIC RING DERIVATIVE” (TAISHO PHARMACEUTICAL CO., LTD., priority 2012, published 2015)", "key": {"[1]": {"molecular_target": "T1, orexin-2 receptor (hOX2R) (Homo sapiens, UniProt O43614)", "T1 construct": "expressed in transfected cells; host or cells: Chinese hamster ovary (CHO) cells", "test": "Measurement of orexin antagonistic activity (intracellular Ca2+ fluorescence, FDSS) on hOX2R", "type": "cell-based", "conditions": "CHO cells forcibly expressing hOX2R; Fluo-4AM; ligand peptide (substituted human orexin-A) 3 nM; compound preincubated 30 minutes; read-out: IC50 Value OX2", "experimental": "(§1) The antagonistic activities of the test compounds on human orexin-1 receptor (hOX1R) and orexin-2 receptor (hOX2R) were measured by modifying from the method described in literature (Toshikatsu Okumura et al., Biochemical and Biophysical Research Communications, 280, 976-981, 2001). Chinese hamster ovary (CHO) cells forcibly expressing the hOX1R and hOX2R were seeded into a 96 well Black clear bottom plate (Nunc) at 20,000 cells per well, which were cultured in Ham's F-12 medium containing 0.1 mM MEM non-essential amino acids, 0.5 mg/mL G418, 10% fetal bovine serum (all by Invitrogen) for 16 hours under the conditions of 37° C., 5% CO2. After removing the medium, 100 μL of 0.5 μM Fluo-4AM ester (Dojin) in an assay buffer (25 mM HEPES (Dojin), Hank's balanced salt solution (Invitrogen), 0.1% bovine serum albumin, 2.5 mM probenecid, 200 μg/mL Amaranth (all by Sigma-Aldrich), pH 7.4) was added and the cells were incubated for 60 minutes at 37° C., 5% CO2. […]\n(§2) The reaction was measured for the fluorescence intensity of each well every second for 3 minutes using Functional Drug Screening System (FDSS; Hamamatsu Photonics K.K.), and the antagonistic activity was determined using the maximum fluorescence intensity as the indicator of intracellular Ca2+ concentration."}, "[2]": {"molecular_target": "T2, human orexin-1 receptor (hOX1R) (Homo sapiens, UniProt O43613)", "T2 construct": "expressed in transfected cells; host or cells: Chinese hamster ovary (CHO) cells", "test": "Measurement of orexin antagonistic activity (intracellular Ca2+ fluorescence, FDSS) on hOX1R", "type": "cell-based", "conditions": "CHO cells forcibly expressing hOX1R; Fluo-4AM; ligand peptide (substituted human orexin-A) 300 pM; compound preincubated 30 minutes; read-out: IC50 Value OX1", "experimental": "as §1, §2"}}, "data": [{"smiles": "CCN(C(=O)c1cc(F)ccc1-c1ncccn1)[C@@H](C)Cn1nnc(-c2ccc(F)cc2)n1", "note": "[Example 70, N-Ethyl-5-fluoro-N-{(2S)-1-[5-(4-fluorophenyl)-2H-tetrazol-2-yl]propan-2-yl}-2-(pyrimidin-2-yl)benzamide]", "values": [{"measurement": "IC50", "setting": "[1]", "value": 452, "unit": "nM"}, {"measurement": "IC50", "setting": "[2]", "value": 1.1, "unit": "nM"}]}, {"smiles": "CCN(C(=O)c1nc(C)ccc1-c1ncccn1)[C@@H](C)Cn1nnc(-c2ccc(F)cc2)n1", "note": "[Example 69, N-Ethyl-N-{(2S)-1-[5-(4-fluorophenyl)-2H-tetrazol-2-yl]propan-2-yl}-6-methyl-3-(pyrimidin-2-yl)pyridine-2-carboxamide]", "values": [{"measurement": "IC50", "setting": "[1]", "value": 1900, "unit": "nM"}]}]}
